Measurements published in ChEMBL document CHEMBL1129408, “Development of novel, potent, and selective dopamine reuptake inhibitors through alteration of the piperazine ring of 1-[2-(diphenylmethoxy)ethyl]-and 1-[2-[bis(4-fluorophenyl)methoxy]ethyl]-4-(3-phenylpropyl)piperazines (GBR 12935 and GBR 12909)” (J Med Chem, 1996).

By UniProt entry, the sequences of proteins in these tests, tags left out.
UniProt P23977, whole entry: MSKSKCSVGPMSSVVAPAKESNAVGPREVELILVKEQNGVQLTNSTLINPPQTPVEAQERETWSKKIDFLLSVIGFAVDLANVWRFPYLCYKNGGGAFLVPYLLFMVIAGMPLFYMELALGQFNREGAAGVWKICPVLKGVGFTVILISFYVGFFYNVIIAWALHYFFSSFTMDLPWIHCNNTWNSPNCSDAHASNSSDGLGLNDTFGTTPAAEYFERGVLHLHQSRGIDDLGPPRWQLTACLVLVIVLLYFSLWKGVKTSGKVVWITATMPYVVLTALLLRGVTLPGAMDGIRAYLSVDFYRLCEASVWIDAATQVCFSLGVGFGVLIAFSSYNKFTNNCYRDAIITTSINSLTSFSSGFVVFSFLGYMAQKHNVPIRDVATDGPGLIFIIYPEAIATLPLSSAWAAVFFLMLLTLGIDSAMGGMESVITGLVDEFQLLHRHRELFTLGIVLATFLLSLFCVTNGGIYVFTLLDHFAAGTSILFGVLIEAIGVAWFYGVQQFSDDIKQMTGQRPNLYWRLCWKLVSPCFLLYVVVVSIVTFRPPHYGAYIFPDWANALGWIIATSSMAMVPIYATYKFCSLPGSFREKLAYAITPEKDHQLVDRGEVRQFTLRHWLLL

Target: Sodium-dependent dopamine transporter (Rattus norvegicus, UniProt P23977)
Assay: Inhibition of dopamine DA reuptake
Outline: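 Uptake into synaptosomes in Krebs-phosphate buffer, pH 7.4, with ascorbic acid 1 mg/mL and pargyline 50 µM. Final tracer was 5 nM [3H]DA or 2 nM [3H]5HT. Incubated at 25 °C for 15 min (DA) or 30 min (5HT), then filtered and filter tritium counted. IC50 derived.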

C[C@@H]1CN(CCOC(c2ccccc2)c2ccccc2)[C@@H](C)CN1CCCc1ccccc1
IC50: 9.6 nM
